# Measured values taken from patent US20240287470A1 (priority 2023, published 2024).
# Tested on: HEK293 cells
# Conditions: MgSO4 as modifier to octoxynol-9/DB lysis and flocculation; both low (37 mM) and high (120 mM) concentrations
smiles,measurement,value
"O=S(=O)([O-])[O-].[Mg+2] [MgSO4, magnesium sulfate]",increase in productivity,~2 fold
